Laboratory results as given in patent publication US20140296248A1, “METHODS AND COMPOSITIONS FOR PREDICTING RESISTANCE TO ANTICANCER TREATMENT” (Stichting het Nederlands Kanker Instiuut-Antoni van …, priority 2011, published 2014).

System: ERK signaling
Test: ERK signaling in MED12-suppressed cancer cells in presence of drugs
Assay type: cell-based, human
Protocol: The cells were fixed, stained and photographed after 10 (untreated) or 28 days (treated). […] The cells were fixed, stained and photographed after 14 (untreated) or 28 days (treated). […] G) Colony formation assay of Huh-7 cells expressing pLKO control or shMED12 vectors (#4 and #5) were cultured in 2 μM sorafenib. The cells were fixed, stained and photographed after 14 (untreated) or 21 days (treated). […] Huh-7 cells expressing pLKO control or shMED12 vectors were grown in the absence or presence of 4 μM sorafenib for 6 hours and the cell lysates were harvested for western blotting analysis.

C[C@@H](Oc1cc(-c2cnn(C3CCNCC3)c2)cnc1N)c1c(Cl)ccc(F)c1Cl [crizotinib]
activation of ERK signaling by MED12 suppression in the presence of drug: persists
